Earlier results on 1 substance are cited in US20240224991A9, “NANO-[…] N[…] PESTICIDE/FUNGICIDE CARRIERS FOR AGRICULTURE AND AQUACULTURE” (priority 2022, published 2024).

For the data set the following is noted: cited from earlier work.

Turning to Emamectin benzoate [EMB], the water solubility is about 24 µg/mL.
